Target: T1, Acetylcholinesterase (Rattus norvegicus, UniProt P37136)
T1 sequence (P37136 whole entry): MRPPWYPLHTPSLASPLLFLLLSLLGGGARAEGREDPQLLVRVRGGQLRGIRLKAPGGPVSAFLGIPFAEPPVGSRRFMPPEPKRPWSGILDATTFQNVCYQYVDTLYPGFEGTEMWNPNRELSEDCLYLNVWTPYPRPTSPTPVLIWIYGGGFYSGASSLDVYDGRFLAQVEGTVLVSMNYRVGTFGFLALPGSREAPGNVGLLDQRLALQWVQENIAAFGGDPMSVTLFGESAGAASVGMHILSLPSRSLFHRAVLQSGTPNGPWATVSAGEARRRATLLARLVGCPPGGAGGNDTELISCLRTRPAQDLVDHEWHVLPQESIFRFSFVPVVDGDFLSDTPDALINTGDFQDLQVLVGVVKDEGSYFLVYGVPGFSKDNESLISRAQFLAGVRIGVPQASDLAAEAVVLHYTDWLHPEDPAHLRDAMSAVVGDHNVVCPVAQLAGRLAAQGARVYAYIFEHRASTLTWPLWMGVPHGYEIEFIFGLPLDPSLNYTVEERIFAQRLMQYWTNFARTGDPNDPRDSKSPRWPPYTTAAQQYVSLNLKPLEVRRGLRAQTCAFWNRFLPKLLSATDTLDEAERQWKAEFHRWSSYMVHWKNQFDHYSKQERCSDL

SMILES | IC50 [µM]
COc1cc2c(cc1OC)C(=O)C(Oc1ccc(C(C)N(C)C)cc1)C2 (centres undefined) | 0.15
COc1cc2c(cc1OC)C(=O)C(Oc1cccc(CN(C)C)c1)C2 (centres undefined) | 1.1
COc1cc2c(cc1OC)C(=O)C(Oc1cccc(CN3CCOCC3)c1)C2 (centres undefined) | 14.6
COc1cc2c(cc1OC)C(=O)C(Oc1cccc(C(C)N3CCOCC3)c1)C2 (centres undefined) | 22.1

— ChEMBL document CHEMBL1142791, “Design, synthesis, and evaluation of 2-phenoxy-indan-1-one derivatives as acetylcholinesterase inhibitors” (Bioorg Med Chem Lett, 2005)
